Publication PMC10766943, “Synthesis, characterization, Hirshfeld surface analysis, antioxidant and selective β-glucuronidase inhibitory studies of transition metal complexes of hydrazide based Schiff base ligand” (Scientific Reports, 2024)

The substances below were run against T1, β-glucuronidase enzyme (Bos taurus, UniProt A3KMY8) (assay: β-Glucuronidase inhibitory activity (p-nitrophenyl-β-D-glucuronide, 405 nm)). Details: β-glucuronidase inhibition, triplicate.
T1 sequence (A3KMY8 24-652): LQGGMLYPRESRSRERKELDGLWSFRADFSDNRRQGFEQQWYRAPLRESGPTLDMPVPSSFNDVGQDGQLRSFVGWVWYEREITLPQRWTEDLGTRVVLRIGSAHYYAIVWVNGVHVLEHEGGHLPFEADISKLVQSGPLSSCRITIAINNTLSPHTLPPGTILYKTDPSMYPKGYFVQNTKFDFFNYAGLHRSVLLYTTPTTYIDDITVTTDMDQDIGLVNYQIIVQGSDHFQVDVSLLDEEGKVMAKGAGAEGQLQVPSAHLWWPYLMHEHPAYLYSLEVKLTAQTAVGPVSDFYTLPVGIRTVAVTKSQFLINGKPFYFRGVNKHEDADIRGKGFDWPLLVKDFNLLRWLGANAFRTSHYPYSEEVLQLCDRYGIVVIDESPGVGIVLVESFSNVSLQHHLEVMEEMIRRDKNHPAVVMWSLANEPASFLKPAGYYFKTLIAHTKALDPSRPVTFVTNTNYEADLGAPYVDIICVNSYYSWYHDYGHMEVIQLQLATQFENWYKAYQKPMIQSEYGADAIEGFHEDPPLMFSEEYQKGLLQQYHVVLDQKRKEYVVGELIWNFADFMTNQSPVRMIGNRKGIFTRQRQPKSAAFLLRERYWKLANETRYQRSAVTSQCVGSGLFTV
Type: biochemical
Description: β-Glucuronidase inhibitory activity by hydrazide Schiff base ligand (H-AHMB) and its metal (II) complexes was investigated using standard procedure. […] According to the procedure 185 µL of 0.1 M acetate buffer, 5 µL compound to be tested and 10 µL of enzyme solution were mixed and incubated at 37 °C for 30 min. SpectraMax plus 384, Molecular Devices, USA was used to read on a multiplate reader at 405 nm after the addition of 0.4 mM p-nitrophenyl-β-D-glucuronide (50 µL). All experiments were performed in triplicate.

Question: “Zinc adduct with N′-[(4-hydroxy-3-methoxyphenyl)methylidene] 2-aminobenzohydrazide [Zn-AHMB]” was tested. Which IC50 did it give?
Answer: 17.3 ± 0.68 µM

Question: How did the IC50 turn out when “Copper adduct with N′-[(4-hydroxy-3-methoxyphenyl)methylidene] 2-aminobenzohydrazide [Cu-AHMB]” was run?
Answer: 32.3 ± 1 µM

Question: With “Nickel adduct with N′-[(4-hydroxy-3-methoxyphenyl)methylidene] 2-aminobenzohydrazide [Ni-AHMB]” as the substance, how does the IC50 read?
Answer: 40.6 ± 1.2 µM

Question: “Cobalt adduct with N′-[(4-hydroxy-3-methoxyphenyl)methylidene] 2-aminobenzohydrazide [Co-AHMB]” was tested. Which IC50 did it give?
Answer: 21.7 ± 2.54 µM
